Measurements: patent publication US20080153791A1, “11Beta -Hydroxysteroid Dehydrogenases” (onpharm GmbH, priority 2005, published 2008)
Where two headings read alike, the source gives them in different places.

By UniProt entry, the sequences of proteins in these tests, tags left out. Where a name states a change or a piece, a line headed by the entry shows the natural chain unless it says otherwise.
UniProt P28845: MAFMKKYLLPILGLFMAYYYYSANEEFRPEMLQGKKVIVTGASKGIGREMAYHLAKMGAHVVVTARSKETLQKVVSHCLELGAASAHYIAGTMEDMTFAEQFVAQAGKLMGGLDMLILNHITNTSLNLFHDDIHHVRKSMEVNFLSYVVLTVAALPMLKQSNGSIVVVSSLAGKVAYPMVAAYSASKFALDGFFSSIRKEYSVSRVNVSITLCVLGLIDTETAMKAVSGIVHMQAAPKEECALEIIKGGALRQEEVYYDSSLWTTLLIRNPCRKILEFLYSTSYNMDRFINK

Biological target: T1, human 11β-HSD1 (Homo sapiens, UniProt P28845)
T1 construct: expressed in transfected cells
Test: 11β-HSD1 reductase activity (cortisone to cortisol) in lysates of stably transfected HEK-293 cells
Format: biochemical
Method: Cells were grown in 10 cm dishes to 80% confluence and incubated for 16 h in steroid-free medium (charcoal-treated fetal calf serum (FCS) from HyClone, Logan, Utah). Cells were rinsed once with phosphate-buffered saline (PBS), detached and centrifuged for 3 min at 150×g. The supernatant was removed and the cell pellet quick-frozen in a dry-ice ethanol bath. At the day of experiment, cell pellets were resuspended in buffer TS2 (100 mM NaCl, 1 mM EGTA, 1 mM EDTA, 1 mM MgCl2, 250 mM sucrose, 20 mM Tris-HCl, pH 7.4), sonicated and activities determined immediately. The rate of conversion of cortisol to cortisone or the reverse reaction was determined in 96-well optical PCR reaction plates (Applied Biosystems, Foster City, Calif.) in a final volume of 22 μl, and the tubes were capped during the reaction to avoid evaporation.
Reactions were initiated simultaneously by adding 10 μl of cell lysate and 12 μl of TS2 buffer containing the appropriate concentration of the inhibitory compound to be tested, NADPH, 30 nCi of [1,2,6,7-^3H]-cortisone and unlabeled cortisone, whereby final concentrations were 400 μM NADPH and 100 nM cortisone. Activities were determined immediately after cell disruption by measuring the conversion of radiolabeled cortisone to cortisol for 10 min.
Enzyme kinetics were analyzed by non-linear regression using Data Analysis Toolbox (MDL Information Systems Inc.) assuming first-order rate kinetics. Data represent mean ±SD of four to five independent experiments.
Assay with 20 μM of the corresponding compound in the reaction mixture, added simultaneously with the substrate:
Determination of IC50 values, using 7 different inhibitor concentrations at factor 2 intervals: […]

(2S,4aS,6aS,6bR,8aR,10S,12aS,12bR,14bR)-10-Acetoxy-2,4a,6a,6b,9,9,12a-heptamethyl-13-oxo-1,2,3,4,4a,5,6,6a,6b,7,8,8a,9,10,11,12,12a,12b,13,14b-icosahydro-picene-2-carboxylic acid [BNW14]
11β-HSD1 % of control: 20.2% | IC50 (read-out: IC 50 11β-HSD1, Mean): 2.81 µM | IC50 (read-out: IC 50 11β-HSD1, determination 1): 2.75 µM | IC50 (read-out: IC 50 11β-HSD1, determination 2): 3.09 µM | IC50 (read-out: IC 50 11β-HSD1, determination 3): 2.58 µM
